# Laboratory results reported in PMC9913288 (2023).
# B1: USP45-Flag [not stated] / MYC-HA [not stated] (parent complex)
# chain 1: MRVKDPTKALPEKAKRSKRPTVPHDEDSSDDIAVGLTCQHVSHAISVNHVKRAIAENLWSVCSECLKERRFYDGQLVLTSDIWLCLKCGFQGCGKNSESQHSLKHFKSSRTEPHCIIINLSTWIIWCYECDEKLSTHCNKKVLAQIVDFLQKHASKTQTSAFSRIMKLCEEKCETDEIQKGGKCRNLSVRGITNLGNTCFFNAVMQNLAQTYTLTDLMNEIKESSTKLKIFPSSDSQLDPLVVELSRPGPLTSALFLFLHSMKETEKGPLSPKVLFNQLCQKAPRFKDFQQQDSQELLHYLLDAVRTEETKRIQASILKAFNNPTTKTADDETRKKVKAYGKEGVKMNFIDRIFIGELTSTVMCEECANISTVKDPFIDISLPIIEERVSKPLLWGRMNKYRSLRETDHDRYSGNVTIENIHQPRAAKKHSSSKDKSQLIHDRKCIRKLSSGETVTYQKNENLEMNGDSLMFASLMNSESRLNESPTDDSEKEASHSESNVDADSEPSESESASKQTGLFRSSSGSGVQPDGPLYPLSAGKLLYTKETDSGDKEMAEAISELRLSSTVTGDQDFDRENQPLNISNNLCFLEGKHLRSYSPQNAFQTLSQSYITTSKECSIQSCLYQFTSMELLMGNNKLLCENCTKNKQKYQEETSFAEKKVEGVYTNARKQLLISAVPAVLILHLKRFHQAGLSLRKVNRHVDFPLMLDLAPFCSATCKNASVGDKVLYGLYGIVEHSGSMREGHYTAYVKVRTPSRKLSEHNTKKKNVPGLKAADNESAGQWVHVSDTYLQVVPESRALSAQAYLLFYERVL
# chain 2: MDFFRVVENQQPPATMPLNVSFTNRNYDLDYDSVQPYFYCDEEENFYQQQQQSELQPPAPSEDIWKKFELLPTPPLSPSRRSGLCSPSYVAVTPFSLRGDNDGGGGSFSTADQLEMVTELLGGDMVNQSFICDPDDETFIKNIIIQDCMWSGFSAAAKLVSEKLASYQAARKDSGSPNPARGHSVCSTSSLYLQDLSAAASECIDPSVVFPYPLNDSSSPKSCASQDSSAFSPSSDSLLSSTESSPQGSPEPLVLHEETPPTTSSDSEEEQEDEEEIDVVSVEKRQAPGKRSESGSPSAGGHSKPPHSPLVLKRCHVSTHQHNYAAPPSTRKDYPAAKRVKLDSVRVLRQISNNRKCTSPRSSDTEENVKRRTHNVLERQRRNELKRSFFALRDQIPELENNEKAPKVVILKKATAYILSVQAEEQKLISEEDLLRKRREQLKHKLEQLRNSCA
# Variants of: B1
# Test: co-IP (IP: anti-Flag, IB: anti-HA), band intensity printed under the blot; HEK293T cells transfected with USP45-Flag (WT or C199A) and MYC-HA; parent: 100
row,percent of parent,Variant
1,79,chain 1 C199A
